Results: patent US20220145260A1, “METHOD FOR CULTURING HEPATIC EPITHELIOID TISSUE HAVING A STRUCTURE OF CONNECTIONS BETWEEN HEPATOCYTES AND BILE DUCT EPITHELIAL CELL” (SAPPORO MEDICAL UNIVERSITY, priority 2019, published 2022)

Tested on: hepatic epithelioid tissue (small hepatocytes and bile duct epithelial cells)
Experiment: Transportation of bile acid analog CLF from hepatocytes to the bile duct
Assay type: cell-based, mice
Details: after 30 minutes; 1 month after overlaying gel

Substance: cholyl lysine fluorescein [CLF]
- uptake by hepatocytes and excretion into the bile canaliculus: taken up by hepatocytes and excreted into the bile canaliculus
